This assay concerns the target canine TRPM8 (Canis lupus familiaris, UniProt Q1A7N1). The experiment in a line: In vitro canine TRPM8 functional assay (Ca2+-sensitive dye, FLIPR/FDSS, icilin activation). Conditions: HEK293 cells expressing canine TRPM8, icilin activation; for % I (0.5 μM): 0.5 μM compound; for pIC50: eight-point dose-response. In kind it is cell-based.

The chains behind the UniProt entries cited, without tags or fusion partners. Residues count along the entry.
UniProt Q1A7N1, 1-1104: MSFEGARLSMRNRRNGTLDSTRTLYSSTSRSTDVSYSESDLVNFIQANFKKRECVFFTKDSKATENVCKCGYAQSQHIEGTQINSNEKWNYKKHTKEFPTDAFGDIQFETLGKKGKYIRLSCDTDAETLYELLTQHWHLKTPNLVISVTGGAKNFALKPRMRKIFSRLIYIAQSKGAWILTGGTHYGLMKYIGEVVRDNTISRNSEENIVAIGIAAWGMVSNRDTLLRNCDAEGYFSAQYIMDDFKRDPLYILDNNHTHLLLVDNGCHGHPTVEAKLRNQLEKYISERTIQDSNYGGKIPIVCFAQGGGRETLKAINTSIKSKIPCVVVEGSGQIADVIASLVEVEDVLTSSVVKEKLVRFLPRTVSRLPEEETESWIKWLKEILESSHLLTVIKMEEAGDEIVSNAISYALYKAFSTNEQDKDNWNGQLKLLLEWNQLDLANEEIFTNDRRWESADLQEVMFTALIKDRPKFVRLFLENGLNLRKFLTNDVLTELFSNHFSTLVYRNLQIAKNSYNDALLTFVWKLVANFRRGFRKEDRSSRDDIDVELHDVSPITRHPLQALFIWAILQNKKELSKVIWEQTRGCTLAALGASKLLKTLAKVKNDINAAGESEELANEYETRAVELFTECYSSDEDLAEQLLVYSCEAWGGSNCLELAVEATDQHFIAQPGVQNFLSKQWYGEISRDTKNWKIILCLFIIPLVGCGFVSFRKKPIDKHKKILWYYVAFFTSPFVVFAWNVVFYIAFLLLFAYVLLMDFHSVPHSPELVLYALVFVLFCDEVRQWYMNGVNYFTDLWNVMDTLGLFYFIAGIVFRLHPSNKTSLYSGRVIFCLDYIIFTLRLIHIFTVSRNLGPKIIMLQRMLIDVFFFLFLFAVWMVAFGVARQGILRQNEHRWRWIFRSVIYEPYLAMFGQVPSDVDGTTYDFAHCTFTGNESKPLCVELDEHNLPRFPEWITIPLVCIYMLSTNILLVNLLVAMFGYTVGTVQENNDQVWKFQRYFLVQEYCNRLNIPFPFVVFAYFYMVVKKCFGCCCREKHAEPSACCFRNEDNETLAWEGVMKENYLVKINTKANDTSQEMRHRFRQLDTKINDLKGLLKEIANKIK

pIC50: −log10 of the molar value.

As usually defined, the pIC50 is the IC50 on a negative log10 scale, so that one unit is a factor of ten.

For the molecule `CCOP(=O)(OCC)C(Cc1ccc(F)c(C(F)(F)F)c1)c1sc2ccccc2c1Br` (centres unmarked), the “% I (0.5 μM)” value was determined as 102% and the pIC50 was 7.36.

As for `CCOP(=O)(OCC)C(Cc1cccc(SC(F)(F)F)c1)c1sc2ccccc2c1Br` (centres unmarked), the “% I (0.5 μM)” value is reported as 104% and the pIC50 was 6.99.

In the case of `CCCn1c(C(Cc2ccc(F)c(C(F)(F)F)c2)P(=O)(OC(C)C)OC(C)C)c(Br)c2ccccc21` (centres unmarked), the “% I (0.5 μM)” value came out at 100% and the pIC50 was 6.75.

Take `CCOP(=O)(OCC)C(Cc1ccc(Cl)c(F)c1)c1sc2ccccc2c1Cl` (centres unmarked): the “% I (0.5 μM)” value stood at 103% and the pIC50 was 6.91.

The record behind these values is patent publication US20080287398A1, “COLD MENTHOL RECEPTOR-1 ANTAGONISTS” (priority 2007, published 2008).
